Measured values taken from PubChem BioAssay AID875 (National Center for Advancing Translational Sciences (NCATS), 2007).
The list shows a part of the results, in another mix than the full data. The source made the active and inactive calls. Calls follow the shape of the dose curve; as a rule, active = well fitted inhibition curve with a large enough effect; inconclusive = small, poorly fitted or top-dose-only effect; inactive = no such curve, though single readings can be large or run the other way.

Protein sequences, listed by entry. Tags and fused reporters are not part of them.
UniProt P38398, whole entry: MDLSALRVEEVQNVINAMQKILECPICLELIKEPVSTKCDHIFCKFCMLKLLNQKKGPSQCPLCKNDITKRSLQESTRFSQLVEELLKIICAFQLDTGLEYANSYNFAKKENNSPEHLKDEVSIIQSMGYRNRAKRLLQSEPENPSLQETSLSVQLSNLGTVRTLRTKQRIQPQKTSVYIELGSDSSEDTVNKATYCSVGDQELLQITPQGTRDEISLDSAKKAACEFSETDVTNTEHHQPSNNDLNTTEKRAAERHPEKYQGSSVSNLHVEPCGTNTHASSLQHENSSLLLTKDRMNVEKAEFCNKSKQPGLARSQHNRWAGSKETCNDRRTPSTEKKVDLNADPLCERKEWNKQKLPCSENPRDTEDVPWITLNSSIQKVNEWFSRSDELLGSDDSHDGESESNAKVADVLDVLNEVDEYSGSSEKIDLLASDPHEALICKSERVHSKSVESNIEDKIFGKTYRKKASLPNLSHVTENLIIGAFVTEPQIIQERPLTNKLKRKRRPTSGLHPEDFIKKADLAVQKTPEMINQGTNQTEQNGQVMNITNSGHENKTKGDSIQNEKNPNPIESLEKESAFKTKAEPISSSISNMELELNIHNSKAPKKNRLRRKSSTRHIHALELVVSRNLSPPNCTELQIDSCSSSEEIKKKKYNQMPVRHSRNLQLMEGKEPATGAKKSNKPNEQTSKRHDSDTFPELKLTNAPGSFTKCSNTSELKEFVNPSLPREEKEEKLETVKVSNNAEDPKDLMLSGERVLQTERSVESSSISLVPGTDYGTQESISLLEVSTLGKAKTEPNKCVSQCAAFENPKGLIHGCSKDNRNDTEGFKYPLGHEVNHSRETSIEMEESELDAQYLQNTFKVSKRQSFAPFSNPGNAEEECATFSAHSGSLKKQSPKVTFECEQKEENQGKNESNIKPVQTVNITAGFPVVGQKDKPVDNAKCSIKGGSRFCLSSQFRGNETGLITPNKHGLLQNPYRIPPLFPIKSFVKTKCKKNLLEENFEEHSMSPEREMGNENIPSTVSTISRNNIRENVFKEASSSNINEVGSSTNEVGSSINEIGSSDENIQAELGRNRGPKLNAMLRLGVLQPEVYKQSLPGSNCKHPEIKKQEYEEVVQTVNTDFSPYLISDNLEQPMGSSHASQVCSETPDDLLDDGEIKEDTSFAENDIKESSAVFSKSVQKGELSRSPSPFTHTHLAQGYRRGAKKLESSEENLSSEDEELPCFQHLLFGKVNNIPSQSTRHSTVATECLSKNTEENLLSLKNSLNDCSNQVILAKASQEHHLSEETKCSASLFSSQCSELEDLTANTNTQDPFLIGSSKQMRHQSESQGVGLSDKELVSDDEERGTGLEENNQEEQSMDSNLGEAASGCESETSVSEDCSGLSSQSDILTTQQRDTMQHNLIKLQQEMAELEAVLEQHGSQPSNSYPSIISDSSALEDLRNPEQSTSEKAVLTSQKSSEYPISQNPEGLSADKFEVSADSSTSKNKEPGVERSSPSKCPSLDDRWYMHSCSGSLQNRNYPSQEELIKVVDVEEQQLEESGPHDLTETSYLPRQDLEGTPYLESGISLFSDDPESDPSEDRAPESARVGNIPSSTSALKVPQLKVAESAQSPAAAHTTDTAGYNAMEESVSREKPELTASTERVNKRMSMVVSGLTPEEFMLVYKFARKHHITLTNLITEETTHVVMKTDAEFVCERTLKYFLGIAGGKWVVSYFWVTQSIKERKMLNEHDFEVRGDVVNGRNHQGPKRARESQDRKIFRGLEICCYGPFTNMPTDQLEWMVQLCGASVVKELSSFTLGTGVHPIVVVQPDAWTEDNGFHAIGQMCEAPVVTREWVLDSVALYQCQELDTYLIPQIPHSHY

target: Breast cancer type 1 susceptibility protein (Homo sapiens) (UniProt P38398); assay: qHTS Assay for Inhibitors of BRCT-Phosphoprotein Interaction (Green Fluorophore); settings: BRCA1 BRCT-phosphopeptide binding, green fluorescence polarization; at 76.9 µM (top of the series) unless noted
Experimental: NIH Molecular Libraries Screening Centers Network [MLSCN]
NIH Chemical Genomics Center [NCGC]
PI Name: Natarajan, Amarnath; University of Texas
A complex of BRCT (C-terminal portion of BRCA1, MW ~35 kDa, His-tagged) and fluorescently labeled pBACH1 phosphorylated 10 aa peptide fragment of BACH1, a helicase implicated in DNA repair, is incubated with library members. Inhibitors of BRCT-pBACH1 binding are detected by a decrease in the fluorescence polarization (FP) of the fluorophore. In order to minimize the effect of fluorescence artifacts and to increase the overall robustness of the screen, the compound library members were incubated in separate reactions with fluorescein labeled probe-protein complexes. Protein and labeled probes were supplied by Dr. Amarnath Natarajan, Department of Pharmacology and Toxicology, University of Texas Medical Branch Galveston, TX.
Assay Buffer: 16mM Na2HPO4, 4 mM NaH2PO4, 150 mM NaCl, 1 mM EDTA, 1 mM DTT, 0.02% NaN3, and 0.01% Tween 20 at pH 7.3.
100 nM labeled decapeptide/250 nM protein in columns 1, 2, 5 - 48. Titration of unlabeled decapeptide control (from 10 mM, then 1:2 dilution in duplicate) pin-transferred to column 2, rows 1 to 16. Column 1 is neutral.
Three uL of reagents were dispensed to 1536-well Greiner black solid-bottom plates. Compounds and controls (23 nL) were transferred
via Kalypsys PinTool. The plates were incubated for 12 min at room temperature, and then read on ViewLux (Perkin-Elmer) High throughput CCD imager using FITC for the fluorescein-labeled decapeptide probe polarization filter sets. During dispense, reagent bottles were kept submerged into 4 deg C water bath and all liquid lines were covered with aluminum foil to minimize probe and protein degradation. All screening operations were performed on a Kalypsys robotic system (Kalypsys, Inc., San Diego, CA) containing one RX-130 and two RX-90 anthropomorphic robotic arms. The timing and order of assay plates passing through the screening system were adjusted such that each compound library plate was assayed against the fluorescein- and rhodamine-labeled assay systems at immediately adjacent time points.

Row | Compound | activity change, negative = inhibition
1 | O=C(O)C1(Nc2ccccc2)CCN(Cc2ccccc2)CC1 | inactive: 0.0469% [at 15.4 µM]
2 | CCOc1ncccc1C(=O)NCC1(N2CCOCC2)CCCCC1 | inactive: 0.326%
3 | CCC(CO)(C(=O)OC1CN2CCC1CC2)c1ccccc1 (stereo unspecified) | inactive: -3.34%
4 | Fc1ccccc1NC1CCN(Cc2ccccc2)CC1 | inactive: -2.61%
5 | ClCCOP(OCCCl)OCCCl | inactive: -0.82%
6 | N/C(=N\O)c1c(N)no[n+]1[O-] | inactive: 0.068%
7 | CCOP(=O)(Cl)Cl | inactive: -1.17%
8 | NC1CCCCC1.NP(=O)(O)N(CCCl)CCCl | inactive: -1.1% [at 15.4 µM]
9 | N#CC1(Nc2ccccc2)CCN(CCc2ccccc2)CC1 | inactive: -1.79%
10 | COc1ccc(NC2CCN(CCc3ccccc3)CC2)c(OC)c1 | inactive: -0.437%
11 | O=C(OC1CN2CCC1CC2)C1c2ccccc2Oc2ccccc21 (stereo unspecified) | inactive: -3.57%
